Source: PubChem BioAssay AID932 (The Scripps Research Institute Molecular Screening Center, 2007)
The entries are a selection whose mix differs from that of the whole data set. Some tests of the compounds listed are not included; inactive here does not mean inactive elsewhere. Active and inactive are the calls of the source.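 The calls were made as follows: active = activation above the screen-wide mean activation plus 3 SD (cut at about 130% in these data); inactive = the rest.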

Assay: STAT1 signaling activators, primary screen, cell-based, HTS, luciferase reporter (AID 932);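 also: raw ratio to IFN-gamma control signal so 100% means no change and 0% no light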
Conditions: NIH 3T3 STAT1-luciferase reporter, IFN-gamma, luminescence; at 5.5 µM; active compounds read high; 100% = IFN-gamma alone, no compound

Q: With `CN(C)C1CCCC1OC(=O)C(O)(c1ccccc1)c1ccccc1` (centres undefined) as the molecule, how does the activation (% of control) read?
A: inactive: 96.4%

Q: With `Cc1ccccc1C(=O)NCC1(N2CCCCC2)CCCCC1` as the molecule, how does the activation (% of control) read?
A: inactive: 99.2%

Q: Which activation (% of control) does the source give for `C=CCN1CCN(CCOC(=O)C(O)(c2ccccc2)c2ccccc2)CC1` here?
A: inactive: 96.8%

Q: For `CCN1CCCC(OC(=O)C2(O)c3ccccc3C=Cc3ccccc32)C1` (centres undefined), which activation (% of control) is on record?
A: inactive: 104%

Q: With `O=C(NCC1(N2CCCCC2)CCCCC1)c1cc([N+](=O)[O-])ccc1Cl` as the molecule, how does the activation (% of control) read?
A: inactive: 94.3%

Q: Which activation (% of control) does the source give for `CC(C)N1C(=O)CC2(CCN(CCOC(=O)C(O)(c3ccccc3)c3ccccc3)CC2)C1=O` here?
A: inactive: 99.4%

Q: For `O=C(OC1CN2CCC1CC2)C(CO)(c1ccccc1)c1ccccc1` (centres undefined), which activation (% of control) is on record?
A: inactive: 105%

Q: Which activation (% of control) does the source give for `CN(C)c1cccc(C(=O)NCC2(N(C)C)CCCCC2)c1` here?
A: inactive: 101%

Q: Which activation (% of control) does the source give for `COc1cccc(C(=O)NCC2(N3CCCCC3)CCCCC2)c1` here?
A: inactive: 99.2%
